Experiment [1] deals with T1, Metabotropic glutamate receptor 5 (Rattus norvegicus, UniProt P31424). Briefly: Activity at rat mGlu5 receptor expressed in CHO cells assessed as inhibition of quisqualate-stimulated calcium mobilization by FLIPR assay. The format is functional, cell-based. (In general: A change in cytosolic calcium serves as a functional read-out for many receptors and channels.)
The target of experiment [2] is T1, Metabotropic glutamate receptor 5. Briefly: Displacement of [3H]MPEP from mGlu5 receptor in rat brain. Format: tissue-based. A general note: Displacement assays read how much labelled ligand stays bound in the presence of the test substance.

The chains behind the UniProt entries cited, without tags or fusion partners.
UniProt P31424, whole entry: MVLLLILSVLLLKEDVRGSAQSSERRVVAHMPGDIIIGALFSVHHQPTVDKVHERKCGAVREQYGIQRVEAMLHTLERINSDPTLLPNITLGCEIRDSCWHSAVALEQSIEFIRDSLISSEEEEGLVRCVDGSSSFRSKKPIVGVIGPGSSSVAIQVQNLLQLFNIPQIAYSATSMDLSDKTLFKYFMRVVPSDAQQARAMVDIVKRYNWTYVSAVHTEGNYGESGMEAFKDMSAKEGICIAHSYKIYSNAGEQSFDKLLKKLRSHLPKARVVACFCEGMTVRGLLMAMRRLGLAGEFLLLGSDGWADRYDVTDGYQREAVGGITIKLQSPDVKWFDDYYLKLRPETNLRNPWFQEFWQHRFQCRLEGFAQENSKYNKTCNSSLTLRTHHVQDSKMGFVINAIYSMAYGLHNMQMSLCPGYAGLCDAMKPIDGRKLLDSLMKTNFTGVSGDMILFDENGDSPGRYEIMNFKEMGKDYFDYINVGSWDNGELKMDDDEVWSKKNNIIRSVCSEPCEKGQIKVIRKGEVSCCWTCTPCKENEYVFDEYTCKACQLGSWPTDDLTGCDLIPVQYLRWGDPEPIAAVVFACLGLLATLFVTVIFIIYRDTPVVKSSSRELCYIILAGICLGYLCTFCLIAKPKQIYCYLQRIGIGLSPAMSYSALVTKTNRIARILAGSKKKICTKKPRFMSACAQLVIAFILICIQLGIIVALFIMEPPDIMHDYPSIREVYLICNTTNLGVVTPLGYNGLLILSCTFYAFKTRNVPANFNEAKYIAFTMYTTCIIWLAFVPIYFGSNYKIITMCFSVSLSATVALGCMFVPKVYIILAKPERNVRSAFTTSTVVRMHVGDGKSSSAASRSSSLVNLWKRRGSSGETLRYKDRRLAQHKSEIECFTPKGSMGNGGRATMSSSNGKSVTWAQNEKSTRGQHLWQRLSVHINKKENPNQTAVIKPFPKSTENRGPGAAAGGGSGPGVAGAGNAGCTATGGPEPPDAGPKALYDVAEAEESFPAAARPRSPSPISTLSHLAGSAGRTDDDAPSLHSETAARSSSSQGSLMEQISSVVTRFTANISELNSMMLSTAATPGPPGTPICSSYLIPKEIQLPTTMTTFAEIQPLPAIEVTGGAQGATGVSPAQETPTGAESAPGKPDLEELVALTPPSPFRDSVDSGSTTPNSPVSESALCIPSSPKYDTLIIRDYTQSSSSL

One may read the IC50 as the concentration that inhibits the measured activity by half. The Ki is the equilibrium dissociation constant of an inhibitor or competing ligand from its target. Read a low Ki as a stronger hold on the target. Turning to `Cc1cccc(C#Cc2ccccc2)n1`, the IC50 in experiment [1] amounted to 0.2 nM. The compound also gave a Ki in experiment [2] of 5.7 nM.

Values taken from ChEMBL document CHEMBL1149577, “Rational design of 7-arylquinolines as non-competitive metabotropic glutamate receptor subtype 5 antagonists” (Bioorg Med Chem Lett, 2007).
